According to US12622887B2 (priority 2019, dated 2026):

Test system: αKlotho
Assay: Release of soluble αKlotho in supernatant of primary tubule cell cultures (RPTEC), ELISA
Type: cell-based
Conditions: Gentamicin sulphate 10 mM 6 h alone
Experimental: Concentrations of H2O2 equal to 0.1, 0.2, 0.5 up to 1 mM were also tested. […] The soluble aKlotho analysis was performed using the commercial test ELISA lbl code 277789 following the manufacturer's instructions. […] The soluble aKlotho analysis was performed using ELISA lbl test.

gentamicin sulphate
Average Klotho value: 0 pg/mL
